This is an account of results in patent US9555039B2, “Piperidine derivatives and compositions for the inhibition of nicotinamide phosphoribosyltransferase (NAMPT)” (Forma TM, LLC., priority 2011, dated 2017).

Protein sequences, listed by entry. Tags and fused reporters are not part of them.
UniProt P43490, whole entry: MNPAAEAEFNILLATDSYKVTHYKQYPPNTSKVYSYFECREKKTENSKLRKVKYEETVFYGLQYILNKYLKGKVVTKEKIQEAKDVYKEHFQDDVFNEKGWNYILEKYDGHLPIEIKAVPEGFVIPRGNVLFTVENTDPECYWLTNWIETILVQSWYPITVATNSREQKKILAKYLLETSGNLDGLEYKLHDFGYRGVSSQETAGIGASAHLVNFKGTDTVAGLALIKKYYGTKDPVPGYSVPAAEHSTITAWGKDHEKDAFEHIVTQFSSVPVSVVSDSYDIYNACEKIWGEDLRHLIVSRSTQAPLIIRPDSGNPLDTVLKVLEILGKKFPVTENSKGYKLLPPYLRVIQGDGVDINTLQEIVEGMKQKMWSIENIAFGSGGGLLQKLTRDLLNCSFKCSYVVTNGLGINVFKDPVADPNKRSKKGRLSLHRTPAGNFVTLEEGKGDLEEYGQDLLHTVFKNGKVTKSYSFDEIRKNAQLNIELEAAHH

Molecules are shown by their SMILES.

The target in the first experiment is Recombinant His-tagged NAMPT (Homo sapiens, UniProt P43490). Description: Biochemical inhibition assay: NAMPT enzymatic reaction, NMN quantified by mass spectrometry. The note with it: read-out: Biochem IC50; 33 nM NAMPT, 1 μM NAM, 100 μM PRPP, 2.5 mM ATP, 30 minutes at room temperature.
Take `COc1ccc(S(=O)(=O)N2CCC(CCCCNC(=O)c3cc4cnccc4[nH]3)CC2)cc1F`: the IC50 worked out at 24.8 nM.

As to `COc1ccc(S(=O)(=O)N2CCC(CCCCNC(=O)c3cc4cnccc4[nH]3)CC2)cc1Cl`, the IC50 worked out at 29.3 nM.

For `Cc1cc(F)ccc1S(=O)(=O)N1CCC(CCCCNC(=O)c2cc3cnccc3[nH]2)CC1`, the IC50 amounted to 15.2 nM.

Take `N#Cc1ccc(S(=O)(=O)N2CCC(CCCCNC(=O)c3cc4cnccc4[nH]3)CC2)cc1`: the IC50 came out at 49.6 nM.

`Cc1ccc(S(=O)(=O)N2CCC(CCCCNC(=O)c3cc4cnccc4[nH]3)CC2)cc1F`: the IC50 worked out at 30.7 nM.

Consider `O=C(NCCCCC1CCN(S(=O)(=O)c2cc(F)cc(F)c2)CC1)c1cc2cnccc2[nH]1`, for which the IC50 came to 22.5 nM.

Regarding `COc1cccc(S(=O)(=O)N2CCC(CCCCNC(=O)c3cc4cnccc4[nH]3)CC2)c1`, the IC50 stood at 35.3 nM.

For the compound `CC(C)Oc1ccc(S(=O)(=O)N2CCC(CCCCNC(=O)c3cc4cnccc4[nH]3)CC2)cc1`, the IC50 worked out at 19.3 nM.

For `Cc1ccc(S(=O)(=O)N2CCC(CCCCNC(=O)c3cc4cnccc4[nH]3)CC2)cc1`, the IC50 came out at 30.2 nM.

As to `O=C(NCCCCC1CCN(S(=O)(=O)c2ccc(F)c(Cl)c2)CC1)c1cc2cnccc2[nH]1`, the IC50 was determined as 59.8 nM.

With `O=C(NCCCCC1CCN(S(=O)(=O)c2ccccc2C(F)(F)F)CC1)c1cc2cnccc2[nH]1`, the IC50 is 24.5 nM.

As for `Cc1ccc(F)c(S(=O)(=O)N2CCC(CCCCNC(=O)c3cc4cnccc4[nH]3)CC2)c1`, the IC50 turned out to be 26.8 nM.

`Cc1ccccc1S(=O)(=O)N1CCC(CCCCNC(=O)c2cc3cnccc3[nH]2)CC1`: the IC50 came out at 36 nM.

For `Cc1cc(S(=O)(=O)N2CCC(CCCCNC(=O)c3cc4cnccc4[nH]3)CC2)ccc1F`, the 50% inhibitory concentration (IC50) turned out to be 69.6 nM.

Turning to `O=C(NCCCCC1CCN(S(=O)(=O)c2ccccc2F)CC1)c1cc2cnccc2[nH]1`, the IC50 came to 7.6 nM.

For the compound `Cc1c(F)cccc1S(=O)(=O)N1CCC(CCCCNC(=O)c2cc3cnccc3[nH]2)CC1`, the IC50 was 25.5 nM.

With `O=C(NCCCCC1CCN(S(=O)(=O)c2cccc(C(F)(F)F)c2)CC1)c1cc2cnccc2[nH]1`, the IC50 was 76.9 nM.

As to `COc1ccc(S(=O)(=O)N2CCC(CCCCNC(=O)c3cc4cnccc4[nH]3)CC2)cc1`, the IC50 was determined as 33.8 nM.

Consider `O=C(NCCCCC1CCN(S(=O)(=O)c2cccc(F)c2)CC1)c1cc2cnccc2[nH]1`, for which the IC50 is 21.7 nM.

`COc1ccc(S(=O)(=O)N2CCC(CCCCNC(=O)c3cc4cnccc4[nH]3)CC2)cc1OC`: the IC50 was 27.6 nM.

For `COc1ccc(C)cc1S(=O)(=O)N1CCC(CCCCNC(=O)c2cc3cnccc3[nH]2)CC1`, the IC50 was determined as 27.3 nM.

For the compound `COc1ccc(S(=O)(=O)N2CCC(CCCCNC(=O)c3cc4cnccc4[nH]3)CC2)cc1C`, the IC50 was 21.6 nM.

`O=C(NCCCCC1CCN(S(=O)(=O)c2ccccc2Cl)CC1)c1cc2cnccc2[nH]1`: the IC50 worked out at 21.2 nM.

For another experiment, the system named is A2780 cells. Description: In-vitro cell proliferation assay (SRB, 72 hours). The format is cell-based. The note with it: read-out: A2780 IC50, sulforhodamine B (SRB) assay.
Consider `COc1ccc(S(=O)(=O)N2CCC(CCCCNC(=O)c3cc4cnccc4[nH]3)CC2)cc1F`, for which the IC50 came to 7.5 nM.

In the case of `COc1ccc(S(=O)(=O)N2CCC(CCCCNC(=O)c3cc4cnccc4[nH]3)CC2)cc1Cl`, the IC50 turned out to be 13.7 nM.

With `Cc1cc(F)ccc1S(=O)(=O)N1CCC(CCCCNC(=O)c2cc3cnccc3[nH]2)CC1`, the IC50 turned out to be 7.6 nM.

On to `N#Cc1ccc(S(=O)(=O)N2CCC(CCCCNC(=O)c3cc4cnccc4[nH]3)CC2)cc1`, for which the IC50 was found to be 12.7 nM.

For `Cc1ccc(S(=O)(=O)N2CCC(CCCCNC(=O)c3cc4cnccc4[nH]3)CC2)cc1F`, the IC50 came out at 15.6 nM.

For `O=C(NCCCCC1CCN(S(=O)(=O)c2cc(F)cc(F)c2)CC1)c1cc2cnccc2[nH]1`, the IC50 was determined as 6.9 nM.

With `COc1cccc(S(=O)(=O)N2CCC(CCCCNC(=O)c3cc4cnccc4[nH]3)CC2)c1`, the IC50 stood at 10.7 nM.

Consider `CC(C)Oc1ccc(S(=O)(=O)N2CCC(CCCCNC(=O)c3cc4cnccc4[nH]3)CC2)cc1`, for which the IC50 stood at 1.9 nM.

Consider `Cc1ccc(S(=O)(=O)N2CCC(CCCCNC(=O)c3cc4cnccc4[nH]3)CC2)cc1`, for which the IC50 was 9.9 nM.

With `O=C(NCCCCC1CCN(S(=O)(=O)c2ccc(F)c(Cl)c2)CC1)c1cc2cnccc2[nH]1`, the IC50 worked out at 68.5 nM.

For the compound `O=C(NCCCCC1CCN(S(=O)(=O)c2ccccc2C(F)(F)F)CC1)c1cc2cnccc2[nH]1`, the IC50 worked out at 5 nM.

Take `Cc1ccc(F)c(S(=O)(=O)N2CCC(CCCCNC(=O)c3cc4cnccc4[nH]3)CC2)c1`: the IC50 worked out at 6.7 nM.

With `Cc1ccccc1S(=O)(=O)N1CCC(CCCCNC(=O)c2cc3cnccc3[nH]2)CC1`, the IC50 amounted to 6.7 nM.

For the compound `Cc1cc(S(=O)(=O)N2CCC(CCCCNC(=O)c3cc4cnccc4[nH]3)CC2)ccc1F`, the IC50 was 14.7 nM.

As to `O=C(NCCCCC1CCN(S(=O)(=O)c2ccccc2F)CC1)c1cc2cnccc2[nH]1`, the IC50 turned out to be 6.3 nM.

Regarding `Cc1c(F)cccc1S(=O)(=O)N1CCC(CCCCNC(=O)c2cc3cnccc3[nH]2)CC1`, the IC50 is 12.9 nM.

For the compound `O=C(NCCCCC1CCN(S(=O)(=O)c2cccc(C(F)(F)F)c2)CC1)c1cc2cnccc2[nH]1`, the IC50 turned out to be 62.3 nM.

With `COc1ccc(S(=O)(=O)N2CCC(CCCCNC(=O)c3cc4cnccc4[nH]3)CC2)cc1`, the 50% inhibitory concentration (IC50) is 7.1 nM.

As for `O=C(NCCCCC1CCN(S(=O)(=O)c2cccc(F)c2)CC1)c1cc2cnccc2[nH]1`, the IC50 was 12.9 nM.

Regarding `COc1ccc(S(=O)(=O)N2CCC(CCCCNC(=O)c3cc4cnccc4[nH]3)CC2)cc1OC`, the IC50 was 3.2 nM.

Take `COc1ccc(C)cc1S(=O)(=O)N1CCC(CCCCNC(=O)c2cc3cnccc3[nH]2)CC1`: the IC50 is 1.7 nM.

`COc1ccc(S(=O)(=O)N2CCC(CCCCNC(=O)c3cc4cnccc4[nH]3)CC2)cc1C`: the IC50 was 7 nM.

As to `O=C(NCCCCC1CCN(S(=O)(=O)c2ccccc2Cl)CC1)c1cc2cnccc2[nH]1`, the IC50 was 7.1 nM.
